Data: patent US4851209A, “Diagnostic procedures using radio labeled sucralfate and derivatives or precursors thereof” (The Regents of the University of California, priority 1985, dated 1989)

Experiment: gastric clearance of orally given labeled material in supine human volunteers (gamma camera)
Format: in vivo
Experimental: We have tested Tc-99m labeled potassium sucrose sulfate on two supine human volunteers. The tagged material was stable in a solution comprising one gram per 10 cc of normal saline. The solution was given orally as a 10 cc dose. […] The T1/2 of the labeled potassium sucrose sulfate is r22 minutes from the stomach vs. r90 minutes for radiolabeled sucralfate. The value of Tc-99m potassium sucrose sulfate vs. Tc99m sucralfate is that the residual of the former is less than that of Tc-99m sucralfate. […] A good analogy would be the stars at night vs. the stars during the day. The stars are there in both instances. However, the sky is so bright during the day that star-light is simply lost in the background. […] Radiolabeled potassium sucrose sulfate offers a substantial improvement as a radio-pharmaceutical over the use of radiolabeled sucralfate. The potassium salt used for imaging ulcers in Example III can be replaced by other cations compatible in the human body including alkali metal and alkaline earth metal cations such as sodium and calcium.

potassium sucrose sulfate [Tc-99m labeled potassium sucrose sulfate]
labeled material left in the stomach at 90 minutes (in words) (oral, at 90 minutes): only a minimum
imaging background (vs radiolabeled sucralfate): background is reduced
